The values below are quoted from earlier work in patent US20110052570A1, “METHOD TO PROGNOSE RESPONSE TO ANTI-EGFR THERAPEUTICS” (CHILDREN'S MEDICAL CENTER CORPORATION, priority 2005, published 2011).

This data set relates to colon cancer. As to conditions: colon cancer patients with scores of 0 out of a 3+ scoring system for EGFR immunoreactivity; cited from earlier work.

As for “Cetuximab: monoclonal antibody against EGFR”, the patient response result is listed as “responded”.
